Test results published in PMC4494010 (The Journal of Cell Biology, 2015).

Columns and labels:
GST–CENP-C^[…] = GST–CENP-C^[…] (human); experiment: pull-down
CENP-C^[…] = CENP-C^[…] (human); experiment: cross-linking

binding result (GST–CENP-C^[…]): binds
binding result (CENP-C^[…]): binds
B1: CENP-HK complex (complex, human)
chain 1: MEEQPQMQDADEPADSGGEGRAGGPPQVAGAQAACSEDRMTLLLRLRAQTKQQLLEYKSMVDASEEKTPEQIMQEKQIEAKIEDLENEIEEVKVAFEIKKLALDRMRLSTALKKNLEKISRQSSVLMDNMKHLLELNKLIMKSQQESWDLEEKLLDIRKKRLQLKQASESKLLEIQTEKNKQKIDLDSMENSERIKIIRQNLQMEIKITTVIQHVFQNLILGSKVNWAEDPALKEIVLQLEKNVDMM
chain 2: MNQEDLDPDSTTDVGDVTNTEEELIRECEEMWKDMEECQNKLSLIGTETLTDSNAQLSLLIMQVKCLTAELSQWQKKTPETIPLTEDVLITLGKEEFQKLRQDLEMVLSTKESKNEKLKEDLEREQRWLDEQQQIMESLNVLHSELKNKVETFSESRIFNELKTKMLNIKEYKEKLLSTLGEFLEDHFPLPDRSVKKKKKNIQESSVNLITLHEMLEILINRLFDVPHDPYVKISDSFWPPYVELLLRNGIALRHPEDPTRIRLEAFHQ
